Assay results: PMC5939596 (Cell chemical biology, 2016)

System: legumain over-expressing M38L cells
Conditions: M38L cells incubated with probe, harvested in SDS-sample buffer

For “biotin-6-ahx-DEVD-AOMK [reference compound]”, the “intracellular protein binding / cell permeability” value was “did not bind any intracellular proteins in these cells or was not cell permeable”.
